Data reported in patent US5416090A, “Method of treating inflammation” (priority 1992, dated 1995).

Tests used:
[1] = test system: delayed type hypersensitivity (picryl chloride induced foot pad swelling); assay: Murine delayed type hypersensitivity (DTH) response, picryl chloride; set-up: species or system mouse (Balb/c); conditions: mouse, in vivo
Procedure: The activity of ergoline compounds was also evaluated in a murine delayed-type hypersensitivity (DTH) assay. The DTH assay was performed in substantial accordance with the method set forth in Example 1. Briefly, mice were sensitized by topical administration of picryl chloride on day 1 of the assay. On day 4 paw size was determined and recorded and the paw was then challenged with picryl chloride. The challenged paw was remeasured on day 5 to quantitate the DTH response via the increase in paw size.
Male Balb/c mice (Charles River) weighing 20 to 25 g were used in all DTH studies. When adrenalectomized studies were carried out, sham surgery and adrenalectomized mice were obtained from the vendor. Animals were maintained on a 12:12 hour light:dark cycle. Mice were allowed ad lib access for food (Purina lab chow) and water (normal saline for adrenalectomized animals).
A DTH response was assessed by measuring the degree of rear foot pad swelling induced by picryl chloride. […] On day 3, mice were anesthetized with methoxyflurane, and the baseline rear foot pad thickness was measured with a micrometer (Mitutoyo) in μ, and was recorded in duplicate. […] Twenty-four hours later, the mice were sacrificed by CO2 asphyxiation and each rear foot pad was again measured in duplicate, and any evidence of foot pad swelling was calculated. […]

[2] = test system: graft versus host response (splenomegaly); set-up: species or system mouse (B6C3F1); conditions: mouse, in vivo

Compound: CCCN1CCC[C@H]2Cc3[nH]ncc3C[C@@H]21 (racemic) [Compound 5, trans-(±)-5-n-propyl-4,4a,5,6,7,8,8a,9-octahydro-1H-pyrazolo[3,4-g] quinoline]
- reduction of paw swelling (DTH) [1]: significantly reduced paw swelling
- immunosuppressive activity / effect on GVH splenomegaly [2]: no immunosuppressive activity; also recorded: Lack of effect

“Also recorded” adds a separate entry of the source.
